## Apparent affinities of Ab-14 variants for a coronavirus HR2 peptide

From the AlphaSeq antibody data of Engelhart et al. 2022 (doi:10.1038/s41597-022-01779-4), copy in the FLAb collection.

Target: peptide PDVDLGDISGINAS, taken from heptad repeat 2 (HR2) of SARS-CoV-2 spike.

Each scFv is VH, the linker GGGGSGGGGSGGGGS, VL, as in the parent Ab-14, and differs from it in the CDRs of the light chain only.
VH: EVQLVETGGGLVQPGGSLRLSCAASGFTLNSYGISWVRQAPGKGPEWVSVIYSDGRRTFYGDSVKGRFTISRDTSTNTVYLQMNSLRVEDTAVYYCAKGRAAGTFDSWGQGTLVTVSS
VL: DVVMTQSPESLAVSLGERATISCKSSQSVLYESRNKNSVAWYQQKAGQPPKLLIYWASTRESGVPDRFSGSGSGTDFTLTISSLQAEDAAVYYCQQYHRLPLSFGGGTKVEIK

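The starting antibody came from a phage panning campaign against this peptide. Variants in AAYL50 differ from the parent at up to three CDR positions; double and triple changes were sampled at random. Affinity was read by AlphaSeq, a pooled yeast mating assay with surface-displayed partners. After mating in shaken culture at 30 °C for 16 h, diploids were selected and their barcode pairs sequenced. Read counts were normalised to the haploid input and turned into Kd by a linear fit to BCL2-family pairs of known affinity, for each replicate. Each pool was mated in three replicate cultures.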

Variants are written as CDR1, CDR2 and CDR3 of the light chain (limits as in the source). Parent: KSSQSVLYESRNKNSVA, WASTRES, QQYHRLPLS.
Scale: log10 of Kd in nM, estimated from mating counts; low values are strong binders.
Replicates are averaged; those with no signal do not enter the mean.
A pair that was not seen in that replicate is written "nd"; this usually means weak binding, but a binder can also be missed.

CDR-L1,CDR-L2,CDR-L3,"replicates, log10 nM",mean log10 Kd (nM),empty controls
KSGQSVLYESRNKNSVA,WASTRES,QFYHRLELS,nd / nd / nd,nd,0 of 9
KSSQSKPYESRNKNRVA,WASTRES,QQYHRLPLS,2.54 / nd / nd,2.54,1 of 9 (4.93)
KSNQSVLIESRNKNSVA,WASTRES,RQYHRLPLS,1.63 / 1.85 / 1.58,1.68,6 of 9 (4.06)
KSSQSVLYESRNKESVA,WASTRRS,QQYHRLPLD,3.10 / 5.01 / 4.14,4.09,4 of 9 (4.23)
KSSQSVLRESRNKNSVA,WASTRES,QQYFRLPLS,0.71 / 0.90 / 0.88,0.83,1 of 9 (4.95)
KSSQSVLTESRNKNSVA,WWSTNES,QQYHRLPLS,nd / nd / nd,nd,0 of 9
KSSQSVLYESRTKNSVA,WASVREG,QQYHRLPLS,1.36 / 1.45 / 1.40,1.40,5 of 9 (3.91)
KSPQSVLYESRNKNHVA,WASTRES,QQYHRLPLS,1.27 / 1.50 / 1.34,1.37,1 of 9 (5.32)
KSPQSVHYESRNKNSVA,WASWRES,QQYHRLPLS,2.12 / 2.26 / 2.42,2.27,4 of 9 (4.30)
KSSQSVFYESRNKLSVA,WASTREI,QQYHRLPLS,2.93 / 2.74 / 4.63,3.43,0 of 9
KSAQSVLYESRNKNSVA,WASTRES,QQYHRQPLL,nd / 3.06 / nd,3.06,0 of 9
KSSQSVLYESRNKNSDA,WASTRES,QQQHRLPRS,nd / nd / nd,nd,2 of 9 (3.87)
KSSCSVLYELRNKNSVA,WASTRVS,QQYHRLPLS,3.59 / nd / nd,3.59,1 of 9 (2.92)
KSSQSVLYESRNKNSVA,EASTYES,QQYHRLPLS,1.40 / 1.07 / 1.14,1.20,0 of 9
KSSQSVPYESRNKNSVT,WASTRES,QQLHRLPLS,nd / nd / nd,nd,0 of 9
KSSQSVLYENRAKNSVA,WASTRMS,QQYHRLPLS,1.31 / 1.42 / 1.31,1.35,0 of 9
KSSQSNLYESWNKNSSA,WASTRES,QQYHRLPLS,4.43 / nd / nd,4.43,5 of 9 (4.36)
KSSQSELYESRNKNSMA,WASTRES,QQNHRLPLS,nd / nd / nd,nd,0 of 9
KSSQSVLYESRNKNSVA,WASMRES,QQGHRLPLS,1.85 / 1.77 / 1.86,1.83,6 of 9 (4.26)
KSSQSVLYESRNKVSVA,WASTCES,QQYHRLPLN,nd / nd / nd,nd,0 of 9
KSSQRVLYESRNKNSVA,WASTRES,EQYHRKPLS,nd / nd / nd,nd,1 of 9 (3.81)
KESQSVLYESENKNSVA,WASTRES,QQAHRLPLS,nd / nd / nd,nd,0 of 9
KSSQSVLYESRNKNSVK,WASTRRS,QIYHRLPLS,nd / nd / nd,nd,0 of 9
KSSQSVLYESRNKPSVA,LASTRSS,QQYHRLPLS,2.45 / 2.21 / 2.77,2.48,2 of 9 (3.69)
KSSQCVLYESANKNSVA,WASTRES,QAYHRLPLS,1.33 / 1.63 / 1.62,1.53,4 of 9 (4.79)
KSSQSVAYESRNKNSVA,WASTRES,LQYHTLPLS,3.24 / 3.09 / 3.30,3.21,3 of 9 (4.50)
KSSQSVLSESRKKNSVA,MASTRES,QQYHRLPLS,1.78 / 1.77 / 1.87,1.80,5 of 9 (4.16)
KSSQSVLMESRNKNSVA,WAATRES,QMYHRLPLS,0.79 / 0.98 / 0.87,0.88,1 of 9 (6.02)
KSSQSVHRESRNKNSVA,WASTRES,QGYHRLPLS,4.07 / 2.94 / nd,3.50,2 of 9 (3.77)
KSSQSVLYEQRNFNSVA,WASTRES,QQYHRLPLS,0.60 / 0.94 / 0.89,0.81,2 of 9 (4.26)
KSSQSVLYESRNKWSVA,WVRTRES,QQYHRLPLS,2.61 / 2.43 / 2.57,2.54,1 of 9 (3.60)
HSSQSVLYESRNKNSVA,WASTRES,QQYHRLGLK,nd / nd / nd,nd,0 of 9
KSSQSVLYESRNKNSVA,WASDCES,QQYHRLPRS,4.79 / nd / 3.90,4.34,7 of 9 (4.32)
KSSQSVLYEYRNKNSVQ,WASTRES,QQYHRLKLS,4.35 / nd / nd,4.35,0 of 9
KSSQSVDYESMAKNSVA,WASTRES,QQYHRLPLS,0.65 / 0.70 / 0.75,0.70,2 of 9 (4.84)

The 5 strongest on average among those seen in every replicate, once more:

CDR-L1	CDR-L2	CDR-L3	replicates, log10 nM	mean log10 Kd (nM)	empty controls
KSSQSVDYESMAKNSVA	WASTRES	QQYHRLPLS	0.65 / 0.70 / 0.75	0.70	2 of 9 (4.84)
KSSQSVLYEQRNFNSVA	WASTRES	QQYHRLPLS	0.60 / 0.94 / 0.89	0.81	2 of 9 (4.26)
KSSQSVLRESRNKNSVA	WASTRES	QQYFRLPLS	0.71 / 0.90 / 0.88	0.83	1 of 9 (4.95)
KSSQSVLMESRNKNSVA	WAATRES	QMYHRLPLS	0.79 / 0.98 / 0.87	0.88	1 of 9 (6.02)
KSSQSVLYESRNKNSVA	EASTYES	QQYHRLPLS	1.40 / 1.07 / 1.14	1.20	0 of 9

For reference, the parent read 0.65 as the reference entry and 1.68 as a member of this library.
Empty control strains, which show no peptide, gave a signal in 18% of pairings with library AAYL50; the median was 4.19 and 95% of these signals were weaker than 2.99. No background was subtracted. The control count says in how many pairings with the empty strains this scFv gave a signal, with their mean in brackets.